According to patent US11819483B2, “Combination therapy to treat urea cycle disorders” (Baylor College of Medicine, priority 2017, dated 2023):

Assay: Urinary excretion of phenylbutyrate, benzoate and their conjugated products; nitrogen conjugation in 24 h urine
Conditions: ^15N labeled test meal
Procedure: This was a randomized, three-arm, crossover study. Each arm was completed over a four-day period with a washout period of at least 7 days between any two of the treatment arms (FIG. 1). […] The treatments were designed to provide isomolar amount of drugs and the total daily dose was administered in three equally divided doses.
On day 1 of study arm 1, detailed medical history review and physical examination were performed. Complete blood count, comprehensive metabolic panel, plasma ammonia, and urinalysis (safety laboratory measurements) were performed. Urine pregnancy test was performed on all females. […]
Plasma and urinary drugs and their conjugated products as well as urea and amino acids were determined by mass spectrometry and quantitated based on the dilution of labeled internal standards. Total urinary nitrogen was determined using the micro-Kjeldahl method.
Plasma and urinary phenylbutyrate, PAA, and benzoate were determined as their pentafluorobenzyl derivatives by NCI-GC-MS; . […] Underivatized PAGN and HA were measured by HESI LC-MS/MS; [^2H5] […]
Accordingly, these background values were subtracted from the values obtained during the treatment with phenylbutyrate and benzoate. The total amount of nitrogen conjugated was expressed as fraction of the test meal, by dividing by the total nitrogen content of the test meal. […]

- Urinary 5-[^15N] PAGN: 142.0 μmol/24 h
Substance: sodium phenylbutyrate [NaPB]
